Experiments:
[1] = biological target: Glucocorticoid Receptor (GR) (Homo sapiens, UniProt P04150); test: GR Fluorescence Polarization Assay (PolarScreen Glucocorticoid Receptor Competitor Assay, Red); conditions: read-out: GR binding; fluorescence polarization binding ranges
Procedure: Fluorescence polarization assays were carried out using the PolarScreen™ Glucocorticoid Receptor Competitor Assay, Red from Invitrogen (P2893). The assay buffer was prepared according to the manufacturer's protocol and used to dilute the fluorescent glucocorticoid and GR. Compounds were prepared and serial diluted 1:4 in DMSO. Compound, fluorescent glucocorticoid and GR were added in a final volume of 20 μL and incubated overnight at 4° C. Fluorescent polarization was measured on the PerkinElmer Envision®. Fluorescence polarization binding ranges measured using GR Fluorescence Polarization Assay: […]

The chains behind the UniProt entries cited, without tags or fusion partners.
UniProt P04150, whole entry: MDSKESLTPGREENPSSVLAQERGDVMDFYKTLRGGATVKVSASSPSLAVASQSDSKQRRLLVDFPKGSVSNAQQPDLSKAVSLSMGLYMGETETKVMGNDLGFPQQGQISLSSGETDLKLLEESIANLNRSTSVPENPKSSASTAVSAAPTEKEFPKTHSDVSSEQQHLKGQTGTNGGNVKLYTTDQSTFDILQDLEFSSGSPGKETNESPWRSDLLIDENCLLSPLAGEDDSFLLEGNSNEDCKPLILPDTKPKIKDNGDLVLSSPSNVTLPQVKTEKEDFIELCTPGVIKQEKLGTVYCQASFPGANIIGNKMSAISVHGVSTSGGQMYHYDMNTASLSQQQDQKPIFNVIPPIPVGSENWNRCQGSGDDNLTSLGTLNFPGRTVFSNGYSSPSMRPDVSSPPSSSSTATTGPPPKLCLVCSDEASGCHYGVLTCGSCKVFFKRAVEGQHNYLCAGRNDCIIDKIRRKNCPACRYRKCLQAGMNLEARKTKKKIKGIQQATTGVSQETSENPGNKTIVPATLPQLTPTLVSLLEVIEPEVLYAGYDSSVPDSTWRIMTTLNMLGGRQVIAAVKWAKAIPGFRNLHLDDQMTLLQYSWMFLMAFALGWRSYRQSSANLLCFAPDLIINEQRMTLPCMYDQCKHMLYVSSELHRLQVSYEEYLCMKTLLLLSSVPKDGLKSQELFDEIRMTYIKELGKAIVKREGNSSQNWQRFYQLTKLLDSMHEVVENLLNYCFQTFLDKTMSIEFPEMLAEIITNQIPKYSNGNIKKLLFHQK

IL-6 = test: A549 Cell Assay to Measure Inflammation Markers (inhibition of IL-1β-induced IL-6); conditions: read-out: A549 cell assay; A549 cells
Procedure: A549 Cell Assay to Measure Inflammation Markers
A549 cells were seeded (3E4 cells/well) in 96-well assay plates in culture medium (100 μL/well., F-12 K base media, supplemented with 10% FBS and 100 μ/mL-100 μg/mL Pen-Strep.) After overnight culture in an incubator set to 37° C., 4.9% CO2, and 90% humidity, media was removed from adherent cells by aspiration and replaced with 100 μL/well Assay Medium (F-12 K base media supplemented with 5% charcoal stripped calf sera and 100 U/mL-100 μg/mL Pen-Strep.) Compounds were prepared in DMSO and serial diluted (1:3, 1:4, or 1:5) with DMSO in Dilution Plate(s) to give 10 dilution points for each compound tested. Further dilution (1:250) of compound was made into assay medium and 50 μL/well diluted drug or DMSO/media control was applied to cells. After a 1 h pre-incubation in a temperature, CO2, and humidity controlled incubator, set to 37° C., 50 μL/well of 4 ng/mL IL-1β diluted in assay media, was applied to cultures. Assay plates, with a final volume of 200 μL/well and final concentrations of 0.1% DMSO and 1 ng/mL IL-1β were returned to incubator for a four h incubation period. Next, plates were spun at 183 g (1000 rpm in Beckman/Coulter Allegra 6KR centrifuge) for 10 min. Cell-free supernatant (150 μL/well) was collected and IL-6 was measured by MSD kit, following protocol of manufacturer, and using MSD SECTOR Imager 6000 instrument. […]

IC50 [1] [nM] | IC50 (IL-6) [nM] | Compound
100 to 1000 | – | COC[C@]1(O)CC[C@]2(Cc3ccccn3)c3cn4cnc(-c5ccc(F)cc5)c4cc3CCC[C@@H]2C1
100 to 1000 | 100 to 1000 | CC[C@]1(O)CC[C@]2(Cc3ccccn3)c3cc4cnn(-c5ccc(F)cc5)c4cc3C(=O)CC[C@@H]2C1
1000 to 10000 | > 10000 | CC[C@]12CC[C@@](O)(COC)C[C@H]1CCOc1cc3c(cnn3-c3ccncn3)cc12

From patent publication US9193744B2, “Heterocyclic nuclear hormone receptor modulators” (AbbVie Inc., priority 2012, dated 2015)
